# Results: ChEMBL document CHEMBL3632461 (J Med Chem, 2015)
# Biological target: T1, Myeloperoxidase (Homo sapiens, UniProt P05164)
# T1 sequence (P05164 whole entry): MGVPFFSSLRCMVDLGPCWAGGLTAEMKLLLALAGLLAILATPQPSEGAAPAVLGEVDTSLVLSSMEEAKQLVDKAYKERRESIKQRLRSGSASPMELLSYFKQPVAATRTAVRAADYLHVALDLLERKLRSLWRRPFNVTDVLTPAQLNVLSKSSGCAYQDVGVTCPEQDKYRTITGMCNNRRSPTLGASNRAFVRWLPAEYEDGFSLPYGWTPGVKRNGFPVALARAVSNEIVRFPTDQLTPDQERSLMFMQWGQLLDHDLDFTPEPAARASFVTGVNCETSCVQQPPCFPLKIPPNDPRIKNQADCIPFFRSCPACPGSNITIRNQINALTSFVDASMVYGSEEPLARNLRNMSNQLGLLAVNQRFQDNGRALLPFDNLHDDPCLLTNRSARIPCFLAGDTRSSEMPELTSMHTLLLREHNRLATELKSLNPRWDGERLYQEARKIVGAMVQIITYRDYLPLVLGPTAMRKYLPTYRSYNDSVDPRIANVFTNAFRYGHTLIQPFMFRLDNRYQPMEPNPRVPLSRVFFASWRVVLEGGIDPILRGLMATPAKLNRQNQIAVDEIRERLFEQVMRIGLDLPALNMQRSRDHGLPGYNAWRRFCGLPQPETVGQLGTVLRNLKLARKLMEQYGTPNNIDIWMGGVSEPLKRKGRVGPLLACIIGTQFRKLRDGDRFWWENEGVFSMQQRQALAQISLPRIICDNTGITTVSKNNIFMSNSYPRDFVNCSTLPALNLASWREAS
# Test: Inhibition of peroxidase activity of MPO isolated from human polynuclear leukocytes using Amplex Red as substrate assessed as formation of resorufin measured every 20 secs by spectrophotometric analysis
# Summary of the method: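 MPO purified from human polynuclear leukocytes, in 50 mM sodium phosphate pH 7.4 with 150 mM NaCl, 1 mM DTPA, 2 μM H₂O₂ and 30 μM Amplex Red. Resorufin fluorescence (ex 530/em 580 nm) read every 20 s at room temperature. k_obs fitted from progress curves; k_inact/K_I from the k_obs vs [I] slope; geometric mean of ≥2 experiments.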
smiles,measurement,value
COc1ccc(Cl)cc1-c1cc(=O)[nH]c(=S)n1CC(N)=O [PF-06282999],Ki,316 nM
